Nrf2 inh – blocks Nrf2 signaling | AID 504444 | A549 ARE-Fluc reporter, luciferase luminescence, 18-24 h | Potency, µM (highest dose often 46 µM), inactives show at the highest dose activity change, negative = inhibition, most hits filed as inhibitors | hit rate 2.1% among 360,000; also: potency is read from the fitted curve at half-maximal effect; % is scaled to controls: 0 for no effect and ±100 for the full control effect; nearly all actives have a fitted effect of over 60% in size
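Two sequential reads on A549 ARE_Fluc cells exposed to compound for 18-24 h: a CellTiter-Fluor fluorescence read for viability, then a luciferase luminescence read for Nrf2/ARE activity.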
TSG101-PTAP inh – blocks PTAP/TSG101 interaction to inhibit HIV-1 budding | Q99816 | Fluorescence polarization, FITC-PTAP peptide / Tsg101 binding | Potency, µM (series often up to 115 µM), without a hit: at the top dose activity change, negative = inhibition, hits mostly inhibitors | 340,000 tested, under 10 active | AID 493005; active = well fitted inhibition curve with a large enough effect in the main read-out, with a control signal flat, not every such curve was filed as active; inconclusive = small, poorly fitted or top-dose-only effect, or effect the other way, or a change in a side signal; inactive = no such curve, though single readings can be large or run the other way; also: potency is read from the fitted curve at half-maximal effect; % of control where 0% means no effect
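Fluorescence polarization binding of Tsg101 binding domain (10 uM final) to FITC-labeled PTAP peptide (50 nM final) in HEPES pH 7.5 buffer with NaCl, Tween 20, EDTA, TCEP. Compounds added before peptide; binding 20 min at RT.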
A549 tox – A549 cytotoxicity, counter-screen for Nrf2 inhibitors | Potency, µM (doses to about 46 µM), inactives show at the top dose activity change, negative = cytotoxicity, usual class: inhibitors | A549 ARE-Fluc cells, CellTiter-Fluor viability, 18-24 h | hit rate 0.16% among 390,000 | AID 504648; also: potency is read from the fitted curve at half-maximal effect; % is scaled to controls: 0 for no effect and ±100 for the full control effect
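Cytotoxicity counterscreen: CellTiter-Fluor fluorescence was measured in A549 ARE_Fluc cells after 18-24 h of compound exposure in a concentration series. The subsequent BugLite luminescent read reports ARE-luciferase activity.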
miR-21 reporter – raises the signal of a miR-21 reporter | HeLa miR-21 FLuc reporter, luciferase, 48 h | Potency, µM (highest dose often 38.3 µM), for inactives: at the highest dose reporter change, positive = more light | 340,000 tested, under 10 active | AID 2288; active = well fitted rising curve with a large enough effect; inconclusive = small, poorly fitted or top-dose-only effect; inactive = no such curve, though single readings can be large or run the other way;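 also: % of control where 0% means no effect; miR-21 action dims this reporter so a rising signal means less miR-21 action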
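Compounds were titrated across several concentrations (up to approximately 40 uM) and incubated 48 hours with HeLa miR-21-FLuc reporter cells (miR-21 target sequence downstream of FLuc, endogenous miR-21). Readout was firefly luciferase luminescence after lytic detection reagent.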
Nrf2 ARE act – activators of Nrf2 (ARE) signaling; AREc32 ARE-luciferase reporter (MCF7-derived line), luminescence, 24 h; Potency, µM (doses to about 46.1 µM), for inactives: at the top dose activation, actives largely listed as activators; hit rate 0.31% among 410,000; AID 624171; also: potency is read from the fitted curve at half-maximal effect; % of control where 0% means no effect; nearly all actives have a fitted effect of over 65% in size
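ARE-driven firefly luciferase activity in AREc32 cells measured after a 24 hr compound exposure at 37 deg C, using Steady-Glo reagent and a 30 min room-temperature hold.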
GRP78 ERSR act – induces the endoplasmic reticulum stress response in human glioma cells. Potency, µM, for the others: top-dose activation, most hits filed as activators. hit rate 0.02% among 420,000. U87-MG GRP78 promoter luciferase reporter, 16 h. AID 602332; also: potency is read from the fitted curve at half-maximal effect; series mostly up to about 76 µM; % of control where 0% means no effect; nearly all actives have a fitted effect of over 35% in size
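Stably transfected U87-MG human glioma cells carrying a GRP78-based luminescent sensor were seeded at 1000 cells/well, pin-dosed with compounds and incubated 16 h. Luciferase reagent was then added, and end-point luminescence was read after 10 min at room temperature.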
* marks the source's active call; other numbers are inactive results; ? = inconclusive; nt = not tested or not shown; [ ] = remark or other dose. Hits are enriched below; roughly 2.1% of the tested compounds scored in any of these assays. Unless noted, calls follow the shape of the dose curve; as a rule, active = well fitted curve in the direction sought with a large enough effect; inconclusive = small, poorly fitted or top-dose-only effect, or another doubt; inactive = no such curve, though single readings can be large; an effect the other way counts as inactive or inconclusive.

| molecule | Nrf2 ARE act | Nrf2 inh | GRP78 ERSR act | A549 tox | TSG101-PTAP inh | miR-21 reporter |
| --- | --- | --- | --- | --- | --- | --- |
| O=C(COc1ccccc1-c1nc(-c2ccccc2)no1)Nc1ccccc1[N+](=O)[O-] | 21.8% | 18.4µM* | 0.7% | 4.2% | nt | 14.8% |
| Cc1ccc(-c2noc(-c3ccccc3OCC(=O)Nc3ccccc3[N+](=O)[O-])n2)cc1 | 9.4% | ? | 0.6% | -6.9% | nt | 13.1% |
| Cc1cc(OC(C)C(=O)N2CCN(c3ccc(F)cc3)CC2)c2c(C)c(C)c(=O)oc2c1 (configuration not stated) | -0.9% | 25.9µM* | -6.2% | -17.7% | -4.7% | -1.7% |
| O=C(c1ccccc1O)N(Cc1cccs1)Cc1cccs1 | nt | ? | nt | 2.5% | nt | nt |
| COC(=O)COc1ccc2c(-c3ccc(OC)cc3)cc(=O)oc2c1 | -0.5% | nt | 25.1µM* | 4.2% | -1.2% | -0.6% |
| COc1ccc(N(CC(=O)Nc2cc(C)ccc2OC)S(=O)(=O)c2c(C)noc2C)cc1 | 0.2% | 8.2µM* | -1.2% | ? | -1.8% | 19.5% |
| COc1ccc(N(CC(=O)Nc2cc(C)ccc2C)S(=O)(=O)c2c(C)noc2C)cc1 | -0.7% | ? | -5.3% | -6.3% | -0.4% | 14.0% |
| COc1ccc(N(CC(=O)NCCc2ccc(C)cc2)S(=O)(=O)c2c(C)noc2C)cc1 | 2.5% | 23.1µM* | -1.6% | -18.6% | -9.1% | -0.4% |
| COc1ccc(-n2nnnc2SCC(=O)Nc2nc3c(s2)CCCC3)cc1 | 0.2% | 16.4µM* | -13.9% | -15.2% | -4.2% | 5.0% |
| CCCCn1c(SCC(=O)Nc2nnc(CC)s2)nc2c1c(=O)n(C)c(=O)n2C | 0.3% | 8.2µM* | -2.2% | -3.0% | nt | -0.8% |
| CCCCn1c(SCC(=O)Nc2nnc(C)s2)nc2c1c(=O)n(C)c(=O)n2C | 0.5% | 2.0% | -6.0% | -7.0%[1.84 µM] | -7.8% | 4.2% |
| CC(C)n1c(SCC(=O)Nc2nc3c(s2)CCCC3)nc2c1c(=O)n(C)c(=O)n2C | -0.6% | 23.1µM* | 0.1% | -15.8% | -1.3% | 3.7% |

Reprinted from the part before: 4 compounds, then new ones.
| molecule | Nrf2 ARE act | Nrf2 inh | GRP78 ERSR act | A549 tox | TSG101-PTAP inh | miR-21 reporter |
| --- | --- | --- | --- | --- | --- | --- |
| COc1ccc(-n2nnnc2SCC(=O)Nc2nc3c(s2)CCCC3)cc1 | 0.2% | 16.4µM* | -13.9% | -15.2% | -4.2% | 5.0% |
| CCCCn1c(SCC(=O)Nc2nnc(CC)s2)nc2c1c(=O)n(C)c(=O)n2C | 0.3% | 8.2µM* | -2.2% | -3.0% | nt | -0.8% |
| CCCCn1c(SCC(=O)Nc2nnc(C)s2)nc2c1c(=O)n(C)c(=O)n2C | 0.5% | 2.0% | -6.0% | -7.0%[1.84 µM] | -7.8% | 4.2% |
| CC(C)n1c(SCC(=O)Nc2nc3c(s2)CCCC3)nc2c1c(=O)n(C)c(=O)n2C | -0.6% | 23.1µM* | 0.1% | -15.8% | -1.3% | 3.7% |
| CCOC(=O)c1c(NC(=O)CSc2nc3c(c(=O)n(C)c(=O)n3C)n2C(C)C)sc(C)c1C | -0.6% | 5.6% | -3.7% | 1.2% | -5.6% | -4.0% |
| CCN(CC)CCNc1cccc2sc3ccccc3c(=O)c12 | 3.2% | nt | -4.4% | nt | nt | nt |
| CCN(CC)CCNc1ccc(CO)c2sc3ccccc3c(=O)c12 | -0.2% | 6.51µM* | 11.8% | 16.4µM* | 1.6% | ? |
| COc1ccc(-c2nc3cc(C)ccc3cc2CN(C(=O)c2ccc(C)s2)C2CC2)cc1OC | nt | nt | -4.4% | nt | nt | nt |
| Clc1nc(-c2ccccc2)cc(-c2ccccc2)n1 | 8.91µM* | 11.1% | -0.3% | 1.9% | -3.1% | -6.3% |
| NNc1nc(-c2ccccc2)cc(-c2ccccc2)n1 | -1.3% | 9.2µM* | -3.0% | -2.9% | -9.7% | 6.0% |
| CC(C)CC(OC(=O)CNC(=O)c1ccccc1)C(=O)Nc1cc(C(F)(F)F)ccc1Cl (configuration not stated) | nt | -2.8% | nt | -8.4% | nt | nt |
| CCCSc1nc(-c2ccccc2)cc(C(F)(F)F)c1C#N | 11.2µM* | nt | -3.1% | 10.2% | -4.1% | 3.1% |
| N#Cc1c(C(F)(F)F)cc(-c2ccccc2)nc1SCCN1CCOCC1 | 11.8% | ? | -1.2% | -2.1% | -6.8% | 1.3% |
| CCCCN(C(C)=O)c1ccc2c(c1)C1CC2CCN1C(=O)OCc1ccccc1 (configuration not stated) | 4.4% | 23.1µM* | -3.2% | -10.3% | -5.1% | nt |
| CCN(CCc1ccccc1)c1ccc2c(c1)C1CC2CCN1C(=O)OCc1ccccc1 (configuration not stated) | -0.9% | 27.4% | -2.3% | -5.5% | -0.7% | nt |
| Nc1cccc2[nH]cnc12 | nt | nt | -1.8% | nt | nt | nt |
| COc1ccc2c(c1)C/C(=C\c1ccc(N(C)C)cc1)C2=O | nt | nt | 0.7% | nt | nt | nt |
| Cc1cc(C)n2nc(-c3cccnc3)nc2n1 | 1.4% | nt | 1.8% | 2.2% | -3.9% | -15.5% |
| Cn1nc(-c2cccnc2)nc2c(=O)n(C)c(=O)nc1-2 | nt | 7.31µM* | -8.6% | 6.51µM* | nt | nt |

Source: PubChem BioAssay (National Center for Advancing Translational Sciences (NCATS))
